# scFv variants of Ab-14 (light chain) against a SARS-CoV-2 spike peptide

The measurements come from Engelhart et al. 2022 (doi:10.1038/s41597-022-01779-4) through the FLAb antibody collection.

The target is the same throughout: PDVDLGDISGINAS, from the HR2 region of SARS-CoV-2 spike.

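AAYL50 was designed without a model: most single CDR substitutions and a random sample of double and triple ones. Affinity was read by AlphaSeq, a pooled yeast mating assay with surface-displayed partners. Binding brings cells together so that they mate, and sequencing counts the barcode pairs among the diploids. The ratio of observed to expected reads was calibrated, replicate by replicate, on BCL2-family standards whose Kd was known from biolayer interferometry. There are three technical replicates.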

Ab-14 is the parent antibody, in scFv form: VH, then the linker GGGGSGGGGSGGGGS, then VL. The heavy chain is unchanged in all variants.
VH: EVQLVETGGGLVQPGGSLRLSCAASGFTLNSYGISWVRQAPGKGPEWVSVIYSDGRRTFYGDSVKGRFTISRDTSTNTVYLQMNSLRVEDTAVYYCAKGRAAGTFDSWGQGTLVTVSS
VL: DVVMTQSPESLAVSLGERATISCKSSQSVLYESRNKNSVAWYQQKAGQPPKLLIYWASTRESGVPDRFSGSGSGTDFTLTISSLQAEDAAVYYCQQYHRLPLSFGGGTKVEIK

Each variant is given by its three light chain CDRs, as the data file delimits them; those of the parent are KSSQSVLYESRNKNSVA, WASTRES, QQYHRLPLS.
Values are log10 of the apparent Kd in nM; lower means stronger binding.
Averages over replicates are reported, and they cover detected replicates only.
"not detected" means that the variant was in the library but no mating with the target was seen in any replicate; the authors take this as a sign of poor binding, and no number exists.

| # | CDR-L1 | CDR-L2 | CDR-L3 | mean, log10 nM | seen in | control signals |
|---|---|---|---|---|---|---|
| 1 | KLSQSVLYESRVKNSVA | WASTREY | QQYHRLPLS | not detected | 0 of 3 | 0 of 9 |
| 2 | KSSQSVLYESRNKNSVA | WISTRES | QYYGRLPLS | 3.32 | 1 of 3 | 1 of 9 |
| 3 | KSSGNVLYLSRNKNSVA | WASTRES | QQYHRLPLS | 1.39 | 3 of 3 | 2 of 9 |
| 4 | KSSQSVMYESREKLSVA | WASTRES | QQYHRLPLS | 2.27 | 3 of 3 | 1 of 9 |
| 5 | KSSQGVLYESRNKNSVA | HASTRES | QQYHRLPHS | 2.80 | 1 of 3 | 0 of 9 |
| 6 | KSSVSVLYESRNKNSVA | WASTRLS | QQYHRLPLS | 2.76 | 3 of 3 | 0 of 9 |
| 7 | KSSQSVLYESRNKNSVA | WVRTRES | QQYHRLPFS | 3.06 | 2 of 3 | 0 of 9 |
| 8 | KSSQSVLYESRNKNPVA | WASTRES | WQYMRLPLS | 4.17 | 2 of 3 | 1 of 9 |
| 9 | KSSQFVLYESRNKNSVA | WASNRES | QQEHRLPLS | not detected | 0 of 3 | 0 of 9 |
| 10 | KSSQSVLDESRNKNSVA | WWSTRES | QQYHRLALS | not detected | 0 of 3 | 1 of 9 |
| 11 | KSSQSVLYESRNSLSVA | WASTRES | QQYHRLPMS | 2.58 | 3 of 3 | 2 of 9 |
| 12 | KSLQSVVYESRNKNSVA | WASTREW | QQYHRLPLS | 2.03 | 3 of 3 | 2 of 9 |
| 13 | KSSQSVLYESRNKNSVA | WASIKEQ | QQYHRLPLS | 4.53 | 1 of 3 | 1 of 9 |
| 14 | KSNQSVLYEARNNNSVA | WASTRES | QQYHRLPLS | 1.16 | 3 of 3 | 7 of 9 |
| 15 | KSSQSVLYESRNKNSVA | WASWRES | IQYHRLWLS | 3.97 | 2 of 3 | 1 of 9 |
| 16 | KSSDHVLYESRNDNSVA | WASTRES | QQYHRLPLS | 0.82 | 3 of 3 | 5 of 9 |
| 17 | KSSQSVLYETRNKNSVA | WASTQES | QQYKRLPLS | 4.03 | 1 of 3 | 1 of 9 |
| 18 | KSSQSVLYKSRNKNSVA | WPSTRES | QQYHILPLS | not detected | 0 of 3 | 0 of 9 |
| 19 | KSSQSVLYESRNKNSVA | WASTRES | VQYHRLPLI | not detected | 0 of 3 | 2 of 9 |
| 20 | KSSRSVKYESRNKNSVA | WASTTES | QQYHRLPLS | not detected | 0 of 3 | 0 of 9 |
| 21 | KSSQSLLYESRNKNSVA | WAEARES | QQYHRLPLS | 1.12 | 3 of 3 | 1 of 9 |
| 22 | KSSQSVLYESRNKNSVA | WASTREQ | QQYHHLPLS | 1.64 | 3 of 3 | 1 of 9 |
| 23 | KSSQSGLYESRNKNSVA | WASTDES | QQYHYLPLS | not detected | 0 of 3 | 0 of 9 |
| 24 | KSSDIVFYESRNKNSVA | WASTRES | QQYHRLPLS | 1.07 | 3 of 3 | 5 of 9 |
| 25 | KVSDSVLYESRNKNSVA | WASTRES | QQYHRLMLS | 3.70 | 3 of 3 | 3 of 9 |
| 26 | KSSHSVLYESYNKNSVA | WASTRES | QRYHRLPLS | not detected | 0 of 3 | 0 of 9 |
| 27 | KSSQSVLYESRNKNSVA | WASTRES | NWLHRLPLS | 3.76 | 1 of 3 | 1 of 9 |
| 28 | KSSTSVLTESRNKNSVA | EASTRES | QQYHRLPLS | -0.19 | 3 of 3 | 6 of 9 |
| 29 | KSSQSVAYESRNKNWVA | WASTQES | QQYHRLPLS | not detected | 0 of 3 | 5 of 9 |
| 30 | ESQQSVLYESRNKNAVA | WASTRES | QQYHRLPLS | 1.13 | 3 of 3 | 2 of 9 |
| 31 | KSSQSVLYESRNKNKVA | WASTRES | QQYHRIPLI | not detected | 0 of 3 | 1 of 9 |
| 32 | KSSRSVLYESRNKNSVA | WASTREC | QQHHRLPLS | 2.60 | 3 of 3 | 2 of 9 |
| 33 | KSSQSVLYESRNKNSVA | WPSTDES | QQYHRLGLS | 4.41 | 1 of 3 | 2 of 9 |
| 34 | FSSQSALYESRNKNSVA | WASTFES | QQYHRLPLS | 2.83 | 1 of 3 | 0 of 9 |
| 35 | KSSQSVLYESRNKNSVA | WANGRES | RQYHRLPLS | 2.60 | 3 of 3 | 5 of 9 |
| 36 | KSSQSVLYESRNKKSVA | WASTRES | QQYHRLPMR | not detected | 0 of 3 | 0 of 9 |
| 37 | KSSQSVVYESRNKNSQA | WASTRYS | QQYHRLPLS | not detected | 0 of 3 | 1 of 9 |
| 38 | KSSQSVLNESRNKNSVC | WASTRES | QQHHRLPLS | 3.65 | 1 of 3 | 2 of 9 |
| 39 | KSSQSVLYISRNKNSVA | WASTRES | AQYHRLPLS | 4.37 | 1 of 3 | 3 of 9 |
| 40 | KSSQSVLYRSRNKNSVA | WASHRES | QQYHRLPLS | 2.63 | 2 of 3 | 1 of 9 |
| 41 | KSSQSVLYESRNGNSVA | WCSTRES | QQYHRLPLY | not detected | 0 of 3 | 0 of 9 |
| 42 | KSSQSVLYESRNKNSVA | WLSTLES | QQYHRLPLS | 4.31 | 2 of 3 | 3 of 9 |
| 43 | KSLQSVLYHSRNKNSVA | WASTRES | QTYHRLPLS | 3.35 | 3 of 3 | 0 of 9 |
| 44 | KSSQSVLYESGNKNSVA | WASTRES | QQYHRLPQH | 3.90 | 1 of 3 | 2 of 9 |
| 45 | KSSQSVEYESRNKNSVA | WASCRES | QQYYRLPLS | 0.52 | 3 of 3 | 0 of 9 |
| 46 | KSSVSVLYESRNKNSVA | WVTTRES | QQYHRLPLS | 2.33 | 3 of 3 | 1 of 9 |
| 47 | KSSQSVLYEFRNKNSLA | WASTRES | QQYHRLPLE | 3.75 | 2 of 3 | 4 of 9 |
| 48 | KSSQSVLYESRNKNSVA | PAKTRYS | QQYHRLPLS | not detected | 0 of 3 | 0 of 9 |
| 49 | KSSQSVLYESRNKNSFA | WASTRPS | QQYHRLRLS | 4.23 | 1 of 3 | 2 of 9 |
| 50 | KSSQSVLYDSRNYNGVA | WASTRES | QQYHRLPLS | 2.41 | 3 of 3 | 1 of 9 |
| 51 | KSSQSVLQESINHNSVA | WASTRES | QQYHRLPLS | 0.39 | 3 of 3 | 4 of 9 |
| 52 | KSSQMVLYESINKNSVA | WASTRES | QQYHALPLS | 1.46 | 3 of 3 | 3 of 9 |
| 53 | KSSQSVLYESRNKASVA | WASTRFS | QQYHRLPLS | not detected | 0 of 3 | 4 of 9 |
| 54 | KSSQSVTYESINKNSVA | WASTRES | QQYHRLPLI | 1.35 | 3 of 3 | 1 of 9 |
| 55 | KSSQSVLYESRNCASVA | WASTRES | QQWHRLPLS | 3.56 | 3 of 3 | 3 of 9 |
| 56 | KSSQTVLKESRNKNSVA | WASTRES | QQYHRLGLS | not detected | 0 of 3 | 0 of 9 |
| 57 | KSSQSVLYESRNKNNVA | WASERES | QFYHRLPLS | 1.58 | 3 of 3 | 4 of 9 |
| 58 | KSSQSVLYESRNKASVA | WASARES | QWYHRLPLS | 3.74 | 1 of 3 | 3 of 9 |
| 59 | KSSQSVLYESRNKNSVA | WASTEES | QQEHRLPLS | not detected | 0 of 3 | 1 of 9 |
| 60 | KSSQSVLYEGRNKNSIA | WASTRES | QQYHRLPYS | not detected | 0 of 3 | 1 of 9 |
| 61 | LSSQSVLYESRNKNSVA | WASRRET | QQYHRLPLS | not detected | 0 of 3 | 1 of 9 |
| 62 | TSSQSVLYESRNKNSVA | WASTREC | QQYHREPLS | 2.06 | 3 of 3 | 5 of 9 |
| 63 | KRSQSVLYESRNKNSVA | WASFREL | QQYHRLPLS | 3.91 | 2 of 3 | 2 of 9 |
| 64 | KSSQSRLYESRNKKSVA | WASTRES | QQYHRLPLS | 1.11 | 3 of 3 | 2 of 9 |
| 65 | KSSQSVLYESRNKNSVA | HASTRRS | CQYHRLPLS | 4.12 | 1 of 3 | 4 of 9 |
| 66 | KSSQSVLYEMRNKNSIA | WASTRES | QQYHRLPLS | 1.21 | 3 of 3 | 2 of 9 |
| 67 | KSSSSVMYESWNKNSVA | WASTRES | QQYHRLPLS | 1.06 | 3 of 3 | 2 of 9 |
| 68 | KSSQNVLYESRNANRVA | WASTRES | QQYHRLPLS | 1.07 | 3 of 3 | 0 of 9 |
| 69 | KSSQSVLWESRNKNSVA | WASTRNS | QQYHRLPLS | 4.79 | 1 of 3 | 1 of 9 |
| 70 | KSSQSVLYETRNKNSVA | WYSTRES | QQYHRLNLS | not detected | 0 of 3 | 0 of 9 |
| 71 | KSSQSVLYESRNKNSVA | WFSPRES | QQYHRLNLS | 3.87 | 1 of 3 | 2 of 9 |
| 72 | KSSQSIHYESRNKNSVA | WASTRES | QQYHRLPLS | not detected | 0 of 3 | 2 of 9 |
| 73 | KSSQSVIYESRNKNSVA | WASTRES | QQYHRPPLL | 1.70 | 3 of 3 | 6 of 9 |
| 74 | KSSQSVLYKSRNKNSYA | WASTRES | QQYHRLPLS | 5.08 | 1 of 3 | 5 of 9 |

The 6 strongest on average among those seen in every replicate, once more:

| CDR-L1 | CDR-L2 | CDR-L3 | mean, log10 nM | seen in | control signals |
|---|---|---|---|---|---|
| KSSTSVLTESRNKNSVA | EASTRES | QQYHRLPLS | -0.19 | 3 of 3 | 6 of 9 |
| KSSQSVLQESINHNSVA | WASTRES | QQYHRLPLS | 0.39 | 3 of 3 | 4 of 9 |
| KSSQSVEYESRNKNSVA | WASCRES | QQYYRLPLS | 0.52 | 3 of 3 | 0 of 9 |
| KSSDHVLYESRNDNSVA | WASTRES | QQYHRLPLS | 0.82 | 3 of 3 | 5 of 9 |
| KSSSSVMYESWNKNSVA | WASTRES | QQYHRLPLS | 1.06 | 3 of 3 | 2 of 9 |
| KSSQNVLYESRNANRVA | WASTRES | QQYHRLPLS | 1.07 | 3 of 3 | 0 of 9 |

Background: pairings of library AAYL50 with three empty control strains gave a value in 18% of cases (median 4.19, 5th percentile 2.99). Values in that range, when seen in few replicates, are hard to tell from nonspecific mating. The control count says in how many pairings with the empty strains this scFv gave a signal.
In this assay the parent's reference entry averaged 0.65; its copy inside this library read 1.68.